Shown are actives, neighbours in structure and some others; about 2.2% of the full set was active somewhere.
SIRT5 block – sirtuin-5 (human) deacylase inhibition | Q9NXA8 | Purified SirT5, succinyl-peptide AMC, trypsin-coupled fluorescence | inhibition, % at 15 µM | 330,000 tested, 1.1% active | AID 652115; in the data active = inhibition above about 15%
UUG fidelity – modulators of start codon recognition fidelity in yeast; AID 602363; activity score, % at 18.7 µM; S. cerevisiae UUG-firefly luciferase reporter, luminescence/redox ratio; 0.13% of 350,000 active;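 active = replicate mean at a twofold rise or more, about +100% in these data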;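 note: firefly luciferase made from a UUG start codon reports start codon fidelity; reporter light over untreated wells divided by growth signal over untreated wells; some hits fall short of that in this replicate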
PDI inh – inhibitors of human protein disulfide isomerase | P07237 | PDI insulin aggregation turbidity, A650, 90 min | inhibition, % at 10 µM | 350,000 tested, 0.052% active;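 active = mean inhibition across replicates of 30% or more, whatever share of single replicates reach that level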
FGF22 binding – FGF22 (human) thermal shift binding; Q9HCT0; recombinant FGF22 thermal shift, SYPRO orange fluorescence; percent of sucrose octasulfate shift, DMSO zero; activity (Tm shift, normalised), % at 9.99 µM; 340,000 tested, 1.5% active; AID 651658;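 active = mean Tm shift, scaled 0 neutral to 100 positive control, at about 1.3% or above, every replicate too, limit read from the data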
S100A4 MyoIIA – S100A4-myosin IIA interaction inhibition | 360,000 tested, 0.14% active | S100A4/TAMRA-MyoIIA peptide fluorescence polarization | inhibition, % at 10.7 µM;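 active = mean inhibition of at least 70% across replicates, with every replicate also reaching that level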
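Test system – S100A4 monomer (human) · Compound – single-point compound testing · Schedule – 5 min incubation before reading · Probe or stimulus – TAMRA-labelled myosin IIA heavy-chain peptide probe, 5 nM · Benchmarks – neutral control DMSO, positive control TFP · Medium – Calcium-containing HEPES buffer, pH 7.2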
ERp5 block – blocks human ERp5 reductase activity on insulin; ERp5 insulin aggregation, absorbance 650 nm, 90 min; AID 651711; inhibition, % at 9.99 µM; 350,000 tested, 0.05% active;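 active = mean replicate inhibition above about 25%, with every replicate also reaching it, limit read from the data, passing the limit was not always enough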
Large screens that a line does not name were inactive.

CNC(=O)C[C@@H]1CC[C@@H]2[C@@H](COc3ccc(NS(=O)(=O)c4cccc(F)c4)cc3C(=O)N2C)O1	none (no result: PDI inh)
O=C(CC1C(=O)NCCN1Cc1ccc(-c2ccccc2)cc1)NCCc1ccccn1 (stereo unspecified)	none (no result: UUG fidelity)
C=CCNC(=O)CC1C(=O)NCCN1Cc1ccc(-c2ccccc2)cc1 (stereo unspecified)	FGF22 binding 43 (no result: UUG fidelity)
CN(C)CC(C)(C)CNC(=O)CC1C(=O)NCCN1Cc1ccc(-c2ccccc2)cc1 (stereo unspecified)	none (no result: UUG fidelity)
COCCN(C)C(=O)CC1C(=O)NCCN1CC(c1ccccc1)c1ccccc1 (stereo unspecified)	FGF22 binding 44 (no result: UUG fidelity)
O=C(CC1C(=O)NCCN1Cc1ccc(-c2ccccc2)cc1)NCC1CC1 (stereo unspecified)	FGF22 binding 44 (no result: UUG fidelity)
CN(CCc1ccccn1)C(=O)CC1C(=O)NCCN1Cc1ccc(-c2ccccc2)cc1 (stereo unspecified)	FGF22 binding 44 (no result: UUG fidelity)
O=C([C@@H]1[C@@H](CO)[C@@H]2Cn3c(ccc(-c4cccnc4)c3=O)[C@H]1N2CC1CC1)N1CCCCC1	none (no result: UUG fidelity, PDI inh)
CCCn1c(SCC(=O)Nc2nccs2)nnc1-c1cccnc1	none (no result: SIRT5 block, FGF22 binding, S100A4 MyoIIA, ERp5 block)
CCCCn1c(SCC(=O)Nc2nc(C)cs2)nnc1-c1cccnc1	SIRT5 block 17
CO[C@H]1CN(C)C(=O)c2cc(NC(=O)Nc3ccccc3)ccc2OC[C@@H](C)N(C(=O)Nc2c(C)noc2C)C[C@H]1C	none (no result: PDI inh)
CCNC(=O)C[C@H]1CC[C@H]2[C@@H](COC[C@@H](O)CN2C(=O)Nc2ccc(C(F)(F)F)cc2)O1	SIRT5 block 64 (no result: UUG fidelity, PDI inh)
O=C(C[C@H]1CC[C@H]2[C@@H](COC[C@H](O)CN2C(=O)Nc2ccc(F)cc2)O1)NCCc1ccncc1	SIRT5 block 18 (no result: PDI inh)
O=C(C[C@H]1CC[C@@H]2[C@H](COC[C@@H](O)CN2C(=O)Nc2ccc(F)cc2)O1)NCCc1ccncc1	none (no result: PDI inh)
CCNC(=O)C[C@H]1CC[C@@H]2[C@H](COC[C@H](O)CN2C(=O)Nc2ccc(C(F)(F)F)cc2)O1	none (no result: UUG fidelity, PDI inh, FGF22 binding)
Cc1noc(C)c1-c1ccc(C(=O)Nc2cccc(C(F)(F)F)c2)c2occc12	SIRT5 block 19
Cc1noc(C)c1-c1ccc(C(=O)Nc2cccc(NS(C)(=O)=O)c2)c2occc12	none
O=C(c1ccccc1)N1CC[C@@H]2[C@H]1c1cc(-c3ccc(F)cc3)ccc1N[C@@H]2CO	none (no result: SIRT5 block, PDI inh, S100A4 MyoIIA, ERp5 block)
COc1ccc2ccccc2c1C1CC(=O)N2CN(C3CCCCC3)CSC2=C1C#N (stereo unspecified)	SIRT5 block 17 (no result: PDI inh)
COc1ccc2ccccc2c1C1CC(=O)N2CN(Cc3ccco3)CSC2=C1C#N (stereo unspecified)	none (no result: PDI inh)
N#CNC(=Nc1cccc(F)c1)SCc1ccccc1	FGF22 binding 44 (no result: UUG fidelity)
O=S(=O)(c1cccc2cccnc12)N1CCN(c2ccccc2)CC1	none
O=S(=O)(c1cccc2cccnc12)N1CCc2ccccc21	none (no result: SIRT5 block, UUG fidelity, FGF22 binding, S100A4 MyoIIA, ERp5 block)
O=S(=O)(c1cccc2cccnc12)N1CCCc2ccccc21	FGF22 binding 43
O=S(=O)(c1cccc2cccnc12)N1CCN(c2ccccn2)CC1	FGF22 binding 43
C[C@@H](NC(=O)C[C@H]1C=C[C@@H](NC(=O)CN2CCOCC2)[C@H](CO)O1)c1ccccc1	none (no result: PDI inh)
O=C(NC1CCCCC1)N[C@H]1CC[C@@H](CC(=O)N2CCOCC2)O[C@H]1CO	none (no result: PDI inh)
O=C(NC1CCCC1)N[C@@H]1CC[C@H](CC(=O)N2CCOCC2)O[C@H]1CO	SIRT5 block 25 (no result: PDI inh)
COc1ccc2c3c(n(C)c2c1)[C@@H](CO)N(Cc1cccc(Cl)c1)CC31CN(C(=O)C2CC2)C1	none (no result: UUG fidelity, PDI inh)
COc1cc(N=Nc2ccc(Br)cc2)cc(C=O)c1O	SIRT5 block 18
COc1cc(CN(C)C)cc(C=O)c1O	none (no result: SIRT5 block, UUG fidelity, FGF22 binding, S100A4 MyoIIA, ERp5 block)
CO[C@H]1CN(C)C(=O)c2cc(NS(=O)(=O)CC(F)(F)F)ccc2OC[C@@H](C)N(CCC(F)(F)F)C[C@@H]1C	none (no result: PDI inh)
Cc1oc(-c2cccs2)nc1CN1CCN(CCC(C)C)C(CCO)C1 (stereo unspecified)	SIRT5 block 17 (no result: UUG fidelity)
CC(C)CCN1CCN(CC(c2ccccc2)c2ccccc2)CC1CCO (stereo unspecified)	FGF22 binding 43
CC(C)CCN1CCN(Cc2nc3ccccc3s2)CC1CCO (stereo unspecified)	none
O=C(NCC1CCCO1)C1CCCN1C(=O)NC1CCCCC1 (stereo unspecified)	none (no result: SIRT5 block, FGF22 binding, S100A4 MyoIIA, ERp5 block)
S=C(NCC1CCCO1)NC1CCCCC1 (stereo unspecified)	FGF22 binding 43 (no result: UUG fidelity)
CO[C@@H]1CN(C)C(=O)c2ccc(NC(=O)Nc3ccccc3)cc2OC[C@@H](C)N(C(C)=O)C[C@H]1C	SIRT5 block 22 (no result: UUG fidelity, PDI inh)
CO[C@H]1CN(C)C(=O)c2ccc(NC(=O)C3CC3)cc2OC[C@@H](C)N(C(=O)c2ccccc2F)C[C@H]1C	SIRT5 block 18 (no result: PDI inh)
CCCNC(=O)Nc1ccc2c(c1)OC[C@H](C)N(C(=O)C1CC1)C[C@H](C)[C@@H](OC)CN(C)C2=O	S100A4 MyoIIA 93 (no result: PDI inh)
CO[C@H]1CN(C)C(=O)c2ccc(NC(=O)C3CC3)cc2OC[C@H](C)N(C(=O)c2ccccc2F)C[C@H]1C	none (no result: PDI inh, S100A4 MyoIIA)
CCCNC(=O)Nc1ccc2c(c1)OC[C@@H](C)N(C(=O)C1CC1)C[C@@H](C)[C@@H](OC)CN(C)C2=O	none (no result: PDI inh)
CC(C)CC#Cc1ccc2c(c1)O[C@@H](CN(C)C(=O)CN(C)C)[C@@H](C)CN([C@@H](C)CO)S2(=O)=O	none (no result: PDI inh)
NC(=O)CNc1n[nH]c(=S)[nH]c1=O	FGF22 binding 43 (no result: UUG fidelity)
O=C(C[C@@H]1CC[C@@H](NC(=O)c2ccccc2)[C@H](CO)O1)Nc1ccc(-c2ccccc2)cc1	none (no result: PDI inh)
C[C@@H]1CN([C@@H](C)CO)C(=O)c2cc(NC(=O)Cc3ccccc3)ccc2O[C@@H](C)CCCCO[C@@H]1CN(C)C(=O)Nc1cccc2ccccc12	none (no result: PDI inh)
C[C@H]1CN([C@@H](C)CO)C(=O)c2cc(C#CC3CCCCC3)cnc2O[C@H]1CN(C)Cc1cncnc1	S100A4 MyoIIA 98 (no result: PDI inh)
COc1ccc(NC(=O)N(C)C[C@@H]2Oc3ncc(C#CC(C)(C)O)cc3C(=O)N([C@H](C)CO)C[C@@H]2C)cc1	S100A4 MyoIIA 112 (no result: PDI inh)
C[C@@H]1CN([C@@H](C)CO)C(=O)c2cc(C#CC3CCCCC3)cnc2O[C@@H]1CN(C)C(=O)Nc1ccccc1	SIRT5 block 16 (no result: PDI inh)
COc1ccc(NC(=O)N(C)C[C@@H]2Oc3ncc(C#CC(C)C)cc3C(=O)N([C@@H](C)CO)C[C@@H]2C)cc1	none (no result: PDI inh)
C[C@@H]1CN([C@@H](C)CO)C(=O)c2cc(C#CC3CCCCC3)cnc2O[C@H]1CN(C)C(=O)Nc1ccccc1	none (no result: PDI inh)
C[C@@H]1CN([C@@H](C)CO)C(=O)c2cc(C#CC3CCCCC3)cnc2O[C@H]1CN(C)Cc1cncnc1	none (no result: PDI inh)
